From PubChem BioAssay
DT40 TDP1 no CPT: qHTS for Inhibitors of human tyrosyl-DNA phosphodiesterase 1 (TDP1): qHTS in cells in absence of CPT | DT40 Tdp1-/- hTDP1 cells, no CPT, ATP luminescence, 48 h | Potency, µM (highest dose often 46.2 µM), usual class: inhibitors | 15% of 420,000 active; also: nearly all actives have a fitted effect of over 55% in size
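Chicken DT40 Tdp1-/- cells stably complemented with human TDP1 were seeded at 400 cells/well with DMSO in place of 20 nM camptothecin. After compound pinning, cells grew at least 48 hr at 37 °C; viability read by CellTiter-Glo luminescence.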
uPA generation: cell surface uPA generation inhibition | cell surface uPA generation assay, qHTS | Potency, µM (series often up to 38.3 µM), most hits filed as inhibitors | 0.31% of 330,000 active | AID 540303; active = well fitted inhibition curve with a large enough effect; inconclusive = small, poorly fitted or top-dose-only effect; inactive = no such curve, though single readings can be large or run the other way; tested in mouse RAW 264.7 cells; also: nearly all actives have a fitted effect of over 55% in size
TDP1 block: TDP1 (human) enzyme inhibition; recombinant TDP1, AlphaScreen DNA substrate cleavage; Potency, µM (series often up to 130 µM), usual class: inhibitors; 0.28% of 350,000 active; AID 485290; also: nearly all actives have a fitted effect of over 40% in size
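Recombinant human Tdp1 (E. coli-expressed, 1 nM final) preincubated with compounds 15 min at room temperature, then 5'-biotin/3'-phosphotyrosine-FITC DNA substrate (15 nM final) added for 5 min. AlphaScreen beads (10 ug/ml final) added 10 min; cleavage lowers signal.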
miR-21 reporter: miR-21 reporter, rising signal; HeLa miR-21 FLuc reporter, luciferase, 48 h; Potency, µM (doses to about 38.3 µM); 340,000 tested, under 10 active; AID 2288; active = well fitted rising curve with a large enough effect; inconclusive = small, poorly fitted or top-dose-only effect; inactive = no such curve, though single readings can be large or run the other way;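 further: miR-21 action dims this reporter so a rising signal means less miR-21 action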
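HeLa cells endogenously expressing miR-21, stably carrying CMV-driven firefly luciferase with a downstream miR-21 binding site, 2000 cells/well. Titrations up to approximately 40 uM, 48 hours; luciferase luminescence read.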
DT40 TDP1 CPT: DT40-hTDP1 cell growth loss with CPT | chicken DT40 Tdp1-/-;hTDP1 cells + 20 nM CPT, ATP luminescence, 48 h | Potency, µM (series often up to 46.2 µM), actives largely listed as inhibitors | 12% of 420,000 active | AID 686979; also: nearly all actives have a fitted effect of over 55% in size
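Cell growth measured by CellTiter-Glo luminescence after a minimum 48 h, 37 C compound exposure with 20 nM CPT in Tdp1-knockout DT40 cells stably expressing hTDP1, seeded 400/well; qHTS titration format.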
Each line names hits and unclear results; the compound was inactive in the other large screens. Shown are actives, neighbours in structure and some others; about 16% of the full set was active somewhere. Unless noted, calls follow the shape of the dose curve; as a rule, active = well fitted curve in the direction sought with a large enough effect; inconclusive = small, poorly fitted or top-dose-only effect, or another doubt; inactive = no such curve, though single readings can be large; an effect the other way counts as inactive or inconclusive.

COc1ccc2c(c1OC)CN(C)CCc1cc3c(cc1C(O)C2)OCO3 (configuration not stated)	DT40 TDP1 no CPT inconclusive, DT40 TDP1 CPT inconclusive
COC(=O)c1ccccc1S(=O)(=O)N1CCC(C(=O)OC(C)C(=O)N(C)Cc2ccccc2)CC1 (configuration not stated)	DT40 TDP1 no CPT inconclusive (no result: TDP1 block, miR-21 reporter)
Cc1nn(C)c(C)c1CNC(=O)c1cc2n(n1)C(C(F)(F)F)CC(c1cccs1)N2 (configuration not stated)	DT40 TDP1 no CPT 5.8µM, DT40 TDP1 CPT 10.3µM
CCOC(=O)c1c(NC(=O)c2cc3n(n2)C(C(F)(F)F)CC(c2cccs2)N3)sc(C)c1C (configuration not stated)	DT40 TDP1 no CPT 6.51µM, DT40 TDP1 CPT 5.17µM
CCOC(=O)c1cc2n(n1)C(C(F)(F)F)CC(C)N2 (configuration not stated)	none
CCCCNC(=O)NC1(C(F)(F)F)Oc2ccccc2O1	DT40 TDP1 no CPT inconclusive
O=C(NCc1cccnc1)NC1(C(F)(F)F)Oc2ccc(Cl)cc2O1 (configuration not stated)	DT40 TDP1 no CPT 11.6µM, uPA generation inconclusive, DT40 TDP1 CPT 10.3µM
Cc1cc(NC(=O)NC2(C(F)(F)F)Oc3ccc(Cl)cc3O2)no1 (configuration not stated)	DT40 TDP1 no CPT 18.4µM, DT40 TDP1 CPT 18.4µM (no result: uPA generation)
Cc1ccc(Cl)cc1NC(=O)NCc1cccnc1	none
COCCNC(=O)NC1(C(F)(F)F)Oc2ccc(Cl)cc2O1 (configuration not stated)	DT40 TDP1 no CPT 13µM, DT40 TDP1 CPT 18.4µM
Cc1cc(C(C)(C)C)cc(S(=O)(=O)NCCO)c1C	none
Cc1ccc(C(NC(=O)CN2C(=O)NC3(CCCC3)C2=O)c2ccccc2)cc1 (configuration not stated)	none (no result: miR-21 reporter)
CCC1CSC(=Nc2ccc(C)cc2)N1C(=O)CN1C(=O)NC2(CCCC2)C1=O (configuration not stated)	uPA generation 8.91µM
Clc1ccc(Nc2nc(C3CC3)cs2)cc1	DT40 TDP1 no CPT inconclusive
NS(=O)(=O)c1ccc(Nc2nc(-c3cccnc3)cs2)cc1	DT40 TDP1 no CPT inconclusive
CS(=O)(=O)c1ccc(Nc2nc(C(N)Cc3ccc(Cl)cc3)cs2)cc1 (configuration not stated)	DT40 TDP1 no CPT 16.4µM, DT40 TDP1 CPT 11.6µM (no result: uPA generation, TDP1 block, miR-21 reporter)
COc1ccc(C(N)c2csc(Nc3ccc(S(C)(=O)=O)cc3)n2)cc1 (configuration not stated)	DT40 TDP1 no CPT inconclusive, DT40 TDP1 CPT 23.1µM (no result: uPA generation, TDP1 block, miR-21 reporter)
CC(C)C(N)c1csc(Nc2ccc(S(C)(=O)=O)cc2)n1 (configuration not stated)	none (no result: uPA generation, TDP1 block, miR-21 reporter)
NC(Cc1ccc(Cl)cc1)c1csc(Nc2ccc(S(N)(=O)=O)cc2)n1 (configuration not stated)	DT40 TDP1 no CPT 9.2µM, DT40 TDP1 CPT 14.6µM (no result: uPA generation, TDP1 block, miR-21 reporter)
NC(Cc1ccc(C(F)(F)F)cc1)c1csc(Nc2ccc(S(N)(=O)=O)cc2)n1 (configuration not stated)	DT40 TDP1 no CPT 20.6µM, DT40 TDP1 CPT 13µM (no result: uPA generation, TDP1 block, miR-21 reporter)
O=C(CN1CCC(C(O)(c2ccccc2)c2ccccc2)CC1)Nc1cc(Cl)ccc1Cl	DT40 TDP1 no CPT 20µM, DT40 TDP1 CPT inconclusive
O=C(CN1CCN(C(=O)N2CCOCC2)CC1)Nc1cc(Cl)ccc1Cl	DT40 TDP1 no CPT 13µM, DT40 TDP1 CPT inconclusive
O=C(CN1CCC(C(O)(c2ccccc2)c2ccccc2)CC1)Nc1ccccc1	DT40 TDP1 no CPT 16.4µM, DT40 TDP1 CPT 20.6µM
O=C(CN1CCN(S(=O)(=O)N2CCOCC2)CC1)Nc1cc(Cl)ccc1Cl	DT40 TDP1 no CPT inconclusive (no result: TDP1 block)
O=C(CN1CCOCCOCCOCC1)Nc1ccccc1	none
CCCOC(=O)c1ccc(NC(=O)COC(=O)C2CCN(c3ccc(C(F)(F)F)cn3)CC2)cc1	uPA generation inconclusive (no result: TDP1 block, miR-21 reporter)
COc1cc2c(cc1NC(=O)c1cc(-c3cccnc3)nc3ccc(C)cc13)oc1ccccc12	DT40 TDP1 no CPT inconclusive, DT40 TDP1 CPT 11.2µM (no result: uPA generation)
COc1cc2c(cc1NC(=O)c1cc(-c3ccncc3)nc3ccccc13)oc1ccccc12	DT40 TDP1 no CPT inconclusive, DT40 TDP1 CPT 20.6µM
COc1cc2c(cc1NC(=O)Nc1cccc(C)c1)oc1ccccc12	DT40 TDP1 no CPT inconclusive, DT40 TDP1 CPT inconclusive
CCn1nc(-c2ccccc2)c(-c2ccccc2)c(C(=O)Nc2nc(C)c(C(=O)N(C)C)s2)c1=O	DT40 TDP1 no CPT inconclusive, DT40 TDP1 CPT inconclusive (no result: uPA generation)
O=C(Cc1ccc(S(=O)(=O)N2CCOCC2)s1)Nc1ccccc1N1CCCC1	DT40 TDP1 no CPT 14.6µM, DT40 TDP1 CPT 16.4µM
O=C(Cc1ccc(S(=O)(=O)N2CCOCC2)s1)Nc1cc(C(F)(F)F)ccc1N1CCCC1	DT40 TDP1 no CPT 20.6µM, DT40 TDP1 CPT inconclusive (no result: miR-21 reporter)
O=C(CCC(=O)N1CCOc2ccccc21)NCc1cccnc1	none (no result: TDP1 block)
COc1ccccc1CNc1ncnc2sc(C(=O)N(C)C(C)C)c(C)c12	DT40 TDP1 no CPT inconclusive (no result: uPA generation, TDP1 block, miR-21 reporter)
COc1ccc(C(CNc2ncnc3sc(C)c(C)c23)N(C)C)cc1 (configuration not stated)	DT40 TDP1 no CPT 23.1µM, DT40 TDP1 CPT inconclusive (no result: TDP1 block)
COc1ccccc1C(CNc1ncnc2sc(C)c(C)c12)N(C)C (configuration not stated)	DT40 TDP1 no CPT 20.6µM, DT40 TDP1 CPT inconclusive
CCCCNC(=O)c1onc(CSc2cc(C)ccc2C)c1C(=O)O	none
Cc1ccc(NC(=O)COC(=O)CCC(=O)c2cccs2)cc1	none
Cc1ccc(CN(CC(O)COc2cccc3[nH]cc(C)c23)C(C)(C)C)cc1 (configuration not stated)	DT40 TDP1 no CPT inconclusive, DT40 TDP1 CPT 20.6µM (no result: TDP1 block)
COC(=O)Cc1c[nH]c2cccc(OCC(O)CN(Cc3ccc([N+](=O)[O-])cc3)C(C)(C)C)c12 (configuration not stated)	DT40 TDP1 no CPT 18.4µM, DT40 TDP1 CPT inconclusive
COc1c(N2CCN(C(=S)Nc3ccc(F)cc3)C(C)C2)c(F)cc2c(=O)c(C(=O)O)cn(C3CC3)c12 (configuration not stated)	none
COc1c(N2CCN(C(=S)NC3CC4CCC3C4)C(C)C2)c(F)cc2c(=O)c(C(=O)O)cn(C3CC3)c12 (configuration not stated)	DT40 TDP1 no CPT 23.1µM, DT40 TDP1 CPT 23.1µM
CCOC(=O)c1ccc(Nc2ncnc3c2cnn3C)cc1	DT40 TDP1 no CPT inconclusive, DT40 TDP1 CPT inconclusive
Cn1ncc2c(O/N=C(\N)c3ccc(C(C)(C)C)cc3)ncnc21	DT40 TDP1 no CPT 2.91µM, miR-21 reporter inconclusive, DT40 TDP1 CPT 2.59µM
Cc1cccc(CNc2cc(-c3ccccc3C)ncn2)c1	DT40 TDP1 no CPT 6.51µM, DT40 TDP1 CPT 14.6µM (no result: uPA generation, TDP1 block, miR-21 reporter)
COc1ccccc1-c1cc(NCc2cccc(C)c2)ncn1	DT40 TDP1 no CPT 18.4µM, DT40 TDP1 CPT 13µM (no result: uPA generation, TDP1 block, miR-21 reporter)
